RAD52 inh = RAD52 DNA annealing inhibitors, primary screen, biochemical, FRET, single point, set 2; inhibition, % at 18.7 µM; DNA repair protein RAD52 homolog (Homo sapiens), P43351; hit rate 0.46% among 360,000; recombinant RAD52 DNA annealing, FRET fluorescence;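 active = every replicate showing at least 50% inhibition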
GSIS activator = GLuc luminescence reporter in INS-1E cells, primary screen for activators of glucose-dependent secretion of insulin | INS-1E GLuc reporter insulin secretion, 2-3 h | hit rate 0.61% among 370,000 | activation, % at 16.6 µM;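 active = lowest replicate activation of at least 40%, so every replicate reaches that level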
RAD54 inh = inhibitors of human RAD54 branch migration, primary screen, biochemical, fluorescence, single point | DNA repair and recombination protein RAD54-like (Homo sapiens), Q92698 | RAD54 Holliday junction branch migration, FAM/BHQ fluorescence | inhibition, % at 10.4 µM | hit rate 0.14% among 360,000;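 active = mean normalized replicate activity at least 40 and at least half of replicates scoring 40 or more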;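 also: inhibitors cause a drop in the FAM fluorescence signal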
CASP6 VEID inh = human caspase-6 inhibitors, primary screen, biochemical, VEID-R110 fluorescence, single point, set 2; purified caspase-6, Z-VEID-R110 cleavage fluorescence; inhibition, % at 12.5 µM; hit rate 0.53% among 350,000; AID 686996, 2013;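 active = mean inhibition across replicates at least about 35%, with every replicate also reaching that limit, limit read from the data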
Yeast UUG start = alters start codon recognition fidelity in yeast | S. cerevisiae UUG-firefly luciferase reporter, luminescence/redox ratio | activity score, % at 18.7 µM | hit rate 0.13% among 350,000 | AID 602363;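 active means replicate mean at a twofold rise or more, about +100% in these data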;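 further: firefly luciferase made from a UUG start codon reports start codon fidelity; reporter light over untreated wells divided by growth signal over untreated wells; some hits fall short of that in this replicate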
PglD DTNB = C. jejuni PglD acetyltransferase inhibitors, primary screen, biochemical, DTNB colorimetric, single point | UDP-N-acetylbacillosamine N-acetyltransferase PglD (Campylobacter jejuni) | purified PglD enzyme, DTNB colorimetric CoA detection | inhibition, % at 12.5 µM | hit rate 0.098% among 360,000 | AID 602405, 2012; in the data active = inhibition above about 16%, passing the limit was not always enough
A number is an active result; - = inactive; . = no result given; ! = not confirmed by another sample. Hits are enriched below; roughly 1.5% of the tested compounds scored in any of these assays.

SMILES	RAD52 inh	GSIS activator	RAD54 inh	CASP6 VEID inh	Yeast UUG start	PglD DTNB
COc1ccc(C(C)=O)cc1Cn1cnc2c(cnn2C)c1=O	-	50.1	-	-	-	-
Cc1c(CC(=O)O)c(=O)oc2c(C)c3occ(-c4ccc(Br)cc4)c3cc12	-	-	-	-	-	-
CCCCC(NC(=O)Cc1c(C)c2cc3c(-c4ccccc4)coc3c(C)c2oc1=O)C(=O)O (configuration not stated)	-	-	-	60.4	-	-
CC=Cc1ccc2n(c1=O)C[C@@H]1[C@@H](CO)[C@H](C(=O)NCc3ccccn3)[C@H]2N1CCC (mixture of isomers)	95.7	-	-	-	.	-
CC=Cc1ccc2n(c1=O)C[C@H]1[C@H](CO)[C@@H](C(=O)NCCOC)[C@@H]2N1Cc1nccs1 (mixture of isomers)	-	-	-	-	.	-
CC=Cc1ccc2n(c1=O)C[C@@H]1[C@@H](CO)[C@H](C(=O)NCCOC)[C@H]2N1Cc1nccs1 (mixture of isomers)	-	-	-	-	.	18.7
COC1CCCN(C(=O)c2cccc(OC3CCN(S(C)(=O)=O)CC3)c2)C1 (configuration not stated)	-	-	-	-	-	-
Cc1cc2[nH]c3c4ccccc4nc(C)c3c2cc1C	83.3	270.9	91.2	-	-	-
Cc1cc2[nH]c3ccccc3c2c(C)n1	-	-	.	-	.	.
O=C1OC(Nc2cc(Br)cc3cccnc23)c2ccccc21 (configuration not stated)	-	.	-	40.2	-	-
Cc1cc(=O)n2ccsc2n1	-	47.4	-	-	-	-
CCN1CCN(c2ncc3c(n2)CC(c2ccc(OC)c(OC)c2)CC3=O)CC1 (configuration not stated)	.	.	-	.	-	-
Cc1noc(C)c1S(=O)(=O)N(C)C[C@@H]1OCCCC[C@H](C)Oc2ccc(NS(=O)(=O)c3cccs3)cc2C(=O)N([C@@H](C)CO)C[C@H]1C	64.4	-	-	-	-	-
C[C@H](CO)N1C[C@H](C)[C@H](CN(C)S(=O)(=O)c2cccs2)OCCCC[C@H](C)Oc2ccc(NS(=O)(=O)c3cn(C)cn3)cc2C1=O	108.9	-	-	-	-	-
C[C@@H]1CN([C@H](C)CO)C(=O)c2cc(NS(=O)(=O)c3cn(C)cn3)ccc2O[C@@H](C)CCCCO[C@@H]1CN(C)S(=O)(=O)c1cccs1	-	-	-	-	-	-
O=C(Cn1[nH]c(=O)c2ccccc2c1=O)OCC(=O)c1ccc(F)cc1	-	52.6	.	-	.	.
O=C(Cn1[nH]c(=O)c2ccccc2c1=O)OCC(=O)c1ccc(F)c(F)c1	-	.	-	-	-	-
COc1ccc(S(=O)(=O)N2C[C@@H](O)COC[C@@H]3O[C@@H](CC(=O)N(C)C)CC[C@H]32)cc1	-	-	-	-	-	-
O=C(NCC1(O)CCCCC1)C1CCC(=O)N(Cc2ccccc2F)C1 (configuration not stated)	-	53.8	-	-	-	-
O=C(c1ccc(F)cc1)N1C[C@H]2[C@@H](c3ccccc31)[C@H](CO)N2Cc1ccc2c(c1)OCO2	-	-	-	-	-	-
O=S(=O)(c1ccccc1)N1[C@@H]2CNC[C@H]1C2c1ccc(-c2cccnc2)cc1 (some centres not stated)	-	-	.	-	.	.
O=S(=O)(c1ccc(-c2ccccc2)cc1)N1[C@@H]2CNC[C@H]1C2c1ccc(-c2cccnc2)cc1 (some centres not stated)	66.4	-	.	-	.	.
Cc1ccc(S(=O)(=O)N2[C@@H]3CNC[C@H]2C3c2ccc(-c3ccc(C#N)cc3)cc2)cc1 (some centres not stated)	55.2	-	.	-	.	.
Cc1ccc(S(=O)(=O)N2[C@@H]3CNC[C@H]2C3c2ccc(/C=C/c3ccccc3)cc2)cc1 (some centres not stated)	53.3!	-	.	-	.	.
Clc1ccc(-c2cn3cc(Br)ccc3n2)cc1Cl	-	.	.	-	.	.
SMILES	RAD52 inh	GSIS activator	RAD54 inh	CASP6 VEID inh	Yeast UUG start	PglD DTNB
Cc1ccc(N2CCN(C(=O)C3CCCN(c4ncnc5c4nc4n5CCCCC4)C3)CC2)c(C)c1 (configuration not stated)	-	-	-	-	-	-
Cc1onc(-c2ccccc2Cl)c1-c1nc(-c2ccncc2)no1	.	.	-	.	-	-
O=C1NC(=O)C2(CCCCC2C2CCCCC2)N1 (configuration not stated)	-	62.5	-	-	-	-
COC(=O)c1cc2c(s1)CS(=O)C2 (configuration not stated)	.	-	-	.	-	-
O=C(CSc1ccc(F)cc1)NCCc1ccc(Cl)cc1	-	-	-	-	-	-
O=C(NCc1ccccc1)[C@@H]1[C@@H](CO)[C@@H]2Cn3c(cccc3=O)[C@H]1N2CC1CCCC1	-	-	-	-	.	-
CC(=O)N1[C@@H]2c3cccc(=O)n3C[C@H]1[C@H](CO)[C@H]2C(=O)NCC1CCCCC1	63.3	-	-	-	.	-
O=C(NCc1ccccn1)[C@H]1[C@H](CO)[C@H]2Cn3c(cccc3=O)[C@@H]1N2CC1CCCCC1	50.7	-	-	-	.	-
C[C@@H]1CN([C@@H](C)CO)C(=O)c2cc(N(C)C)ccc2O[C@@H](C)CCCCO[C@H]1CN(C)S(=O)(=O)c1ccc(F)cc1	-	-	-	-	-	-
O=C(Oc1ccc2c(c1)OCC2=O)c1ccc(Cl)cc1	-	.	-	-	-	-
CN(C(=O)c1cnccn1)c1nnc(-c2cnccn2)s1	.	.	-	.	-	-
CCC1CCCCN1C(=S)NC(=O)c1cc(S(=O)(=O)N2CCOCC2)ccc1C (configuration not stated)	-	-	.	-	.	.
O=C1c2cccnc2C(Nc2ccc(F)c(Cl)c2)N1Cc1cccs1 (configuration not stated)	-	66.2	-	-	-	-
O=C1c2cccnc2C(Nc2ccc(Br)cc2)N1Cc1cccs1 (configuration not stated)	-	-	-	-	-	-
CCNc1nc(Oc2ccc(C#N)cc2)cc(C(F)(F)F)n1	-	105.1	.	-	.	.
CCNc1nc(Oc2ccc(F)cc2)cc(C(F)(F)F)n1	-	-	-	-	-	-
Nc1ccc(S(=O)(=O)Nc2nc3ccccc3o2)cc1	-	-	-	61.7	-	-
Nc1ccc(S(=O)(=O)Nc2cnc3ccccc3n2)cc1	-	-	-	-	-	-
Cc1ccc(NC(=O)c2ccc(-c3nn(C)c(=O)c4ccccc34)cc2)cc1	-	-	-	-	-	-

Source: PubChem BioAssay (Broad Institute)
